Reference: paper PMC3365014, “Specific Recognition of p53 Tetramers by Peptides Derived from p53 Interacting Proteins” (PLoS ONE, 2012)

Legend:
[1] = pH 7.2
[2] = tested on: p53CTD L344A; experiment: Circular dichroism thermal denaturation; settings: 20 µM protein, 100 µM peptide, 25 mM phosphate pH 7.2, 25 to 65°C, CD at 222 nm; average of 2 repeats (WS100A4: error of fit); no peptide 49.1±0.4
[3] = tested on: p53CTD (p53(293–393)), tetrameric recombinant; experiment: Peptide array screening for binding p53CTD; settings: Celluspots peptide array; 20 µM p53CTD in 1% milk in TBS-T, overnight 4°C; FL-393 anti-p53 antibody

| Solubility (in words) [1] | Molecule | Tm of p53CTD L344A in the presence of peptide [2] [°C] | Binds to: p53(293–393) [3] |
| --- | --- | --- | --- |
| less soluble | CC(C)[C@H](NC(=O)[C@@H](N)Cc1c[nH]c2ccccc12)C(=O)N[C@H](C(=O)N[C@H](C(=O)N[C@@H](C)C(=O)N[C@@H](CS)C(=O)N[C@@H](Cc1c[nH]cn1)C(=O)N[C@@H](CCC(=O)O)C(=O)N[C@@H](Cc1ccccc1)C(=O)N[C@@H](Cc1ccccc1)C(=O)N[C@@H](CCC(=O)O)C(=O)N[C@@H](Cc1c[nH]cn1)C(=O)N[C@@H](CCC(=O)O)C(N)=O)[C@@H](C)O)[C@@H](C)O [WS100B(81–92)] |  |  |
|  | WS100A4(21–35): non-binding peptide used as a control (WGKEGDKFKLNKSELK; fluorescein (5(6)-carboxyfluorescein) on the N-terminus) | 48.2±0.1 | did not interact with p53CTD in the array |
